In patent US20150111246A1, “SITE-SPECIFIC ENZYMATIC MODIFICATION OF EXENDINS AND ANALOGS THEREOF” (priority 2012, published 2015):

How the values were obtained:
GLP-1 receptor [1] = molecular target: T1, GLP-1 receptor (Rattus norvegicus, UniProt P32301); test: GLP-1 receptor binding displacement assay
T1 construct: endogenous in cells; host or cells: RINm5F cell membranes
T1 sequence (P32301 22-463): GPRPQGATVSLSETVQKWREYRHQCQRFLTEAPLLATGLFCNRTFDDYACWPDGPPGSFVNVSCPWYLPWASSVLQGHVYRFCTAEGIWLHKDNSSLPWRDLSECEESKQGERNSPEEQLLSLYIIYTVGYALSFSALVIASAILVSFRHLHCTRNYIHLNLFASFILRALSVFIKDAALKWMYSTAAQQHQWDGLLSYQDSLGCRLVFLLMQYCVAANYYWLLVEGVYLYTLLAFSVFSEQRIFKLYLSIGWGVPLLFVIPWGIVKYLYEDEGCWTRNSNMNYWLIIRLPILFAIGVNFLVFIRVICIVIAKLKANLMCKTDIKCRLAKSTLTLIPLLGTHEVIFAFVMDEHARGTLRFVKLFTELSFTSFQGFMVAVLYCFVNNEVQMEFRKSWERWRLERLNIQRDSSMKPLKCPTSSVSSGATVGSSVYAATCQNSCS
Procedure: GLP-1 receptor binding and functional assays: GLP-1 receptor binding activity and affinity may be measured in any number of known methods. […] Reaction mixtures are filtered through glass filter pads presoaked with 0.3% PEI solution and rinsed with ice-cold phosphate buffered saline. Bound counts are determined using a scintillation counter. Binding affinities can be calculated using GraphPad Prism® software (GraphPad Software, Inc., San Diego, Calif.).

GLP-1 receptor [2] = molecular target: GLP-1 receptor (UniProt P32301); test: cell-based or functional assay

Compound | IC50 (GLP-1 receptor [1]) [nM] | EC50 in the GLP-1 functional assay (GLP-1 receptor [2]) [nM]
CC[C@H](C)[C@H](NC(=O)[C@H](Cc1ccccc1)NC(=O)[C@H](CC(C)C)NC(=O)[C@H](CCCNC(=N)N)NC(=O)[C@@H](NC(=O)[C@H](C)NC(=O)[C@H](CCC(=O)O)NC(=O)[C@H](CCC(=O)O)NC(=O)[C@H](CCC(=O)O)NC(=O)[C@H](CCSC)NC(=O)[C@H](CCC(=O)NCCCCCNC(=O)CCCC[C@@H]1SC[C@@H]2NC(=O)N[C@@H]21)NC(=O)[C@H](CCCCN)NC(=O)[C@H](CO)NC(=O)[C@H](CC(C)C)NC(=O)[C@H](CC(=O)O)NC(=O)[C@H](CO)NC(=O)[C@@H](NC(=O)[C@H](Cc1ccccc1)NC(=O)[C@@H](NC(=O)CNC(=O)[C@H](CCC(=O)O)NC(=O)CNC(=O)[C@@H](N)Cc1c[nH]cn1)[C@@H](C)O)[C@@H](C)O)C(C)C)C(=O)N[C@@H](CCC(=O)O)C(=O)N[C@@H](Cc1c[nH]c2ccccc12)C(=O)N[C@@H](CC(C)C)C(=O)N[C@@H](CCCCN)C(=O)N[C@@H](CC(N)=O)C(=O)NCC(=O)NCC(=O)N1CCC[C@H]1C(=O)N[C@@H](CO)C(=O)N[C@@H](CO)C(=O)NCC(=O)N[C@@H](C)C(=O)N1CCC[C@H]1C(=O)N1CCC[C@H]1C(=O)N1CCC[C@H]1C(=O)N[C@@H](CO)C(N)=O | 0.338 | 
Exendin-4 with dansyl cadaverine covalently attached at ^13Q (peptide) |  | 0.003
